Literature values, collected in paper PMC3299805.

Protein sequences, listed by entry. Tags and fused reporters are not part of them. Lines headed by an entry give the natural chain unless they say otherwise; changes in a name come on top. Residues count along the entry.
UniProt Q00560: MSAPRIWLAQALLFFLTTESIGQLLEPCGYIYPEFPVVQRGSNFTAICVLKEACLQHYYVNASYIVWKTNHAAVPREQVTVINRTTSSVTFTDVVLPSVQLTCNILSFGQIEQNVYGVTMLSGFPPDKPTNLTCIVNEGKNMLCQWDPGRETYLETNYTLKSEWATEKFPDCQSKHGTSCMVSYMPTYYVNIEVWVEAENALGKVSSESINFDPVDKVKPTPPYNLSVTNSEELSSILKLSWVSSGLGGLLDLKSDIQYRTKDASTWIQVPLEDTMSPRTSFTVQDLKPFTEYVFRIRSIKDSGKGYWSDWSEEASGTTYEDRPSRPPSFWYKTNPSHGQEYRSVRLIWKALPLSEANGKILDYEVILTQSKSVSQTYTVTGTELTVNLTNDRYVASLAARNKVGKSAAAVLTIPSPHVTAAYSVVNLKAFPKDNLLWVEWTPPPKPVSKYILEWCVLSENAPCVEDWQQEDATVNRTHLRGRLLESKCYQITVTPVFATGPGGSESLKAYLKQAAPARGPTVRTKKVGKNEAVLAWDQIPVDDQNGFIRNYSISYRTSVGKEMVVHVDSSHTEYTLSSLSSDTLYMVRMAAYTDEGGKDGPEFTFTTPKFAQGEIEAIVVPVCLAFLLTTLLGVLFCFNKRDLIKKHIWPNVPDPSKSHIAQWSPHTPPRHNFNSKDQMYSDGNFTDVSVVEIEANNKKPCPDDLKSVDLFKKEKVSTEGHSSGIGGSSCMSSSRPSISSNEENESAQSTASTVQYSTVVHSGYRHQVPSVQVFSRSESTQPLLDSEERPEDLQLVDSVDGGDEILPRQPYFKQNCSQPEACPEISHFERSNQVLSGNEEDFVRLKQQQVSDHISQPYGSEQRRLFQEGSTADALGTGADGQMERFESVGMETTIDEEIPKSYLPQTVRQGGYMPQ
UniProt O35718, 43-145: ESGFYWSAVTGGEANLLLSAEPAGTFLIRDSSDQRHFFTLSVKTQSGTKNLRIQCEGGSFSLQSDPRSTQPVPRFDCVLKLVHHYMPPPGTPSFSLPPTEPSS

Molecular target: gp130 phosphopeptide 750-764 (Mus musculus) (UniProt Q00560)

Kd: 100 nM
Substance: SOCS3 SH2 (from UniProt O35718)
